What was measured:
Experiment in all cases: cell-based or functional assay
[1] = target: T1, human complement component C5 (human, UniProt P01031 19-1676, limits assumed)
[2] = target: T1, human complement component C5; remark: listed apart in the source
[3] = target: T1, human complement component C5; remark: listed apart in the source
[4] = target: T1, human complement component C5; remark: listed apart in the source
[5] = target: T1, human complement component C5; remark: listed apart in the source
[6] = target: T1, human complement component C5; remark: listed apart in the source
[7] = target: T1, human complement component C5; remark: listed apart in the source

By UniProt entry, the sequences of proteins in these tests, tags left out. Residues count along the entry.
UniProt P01031, 19-1676 limits assumed: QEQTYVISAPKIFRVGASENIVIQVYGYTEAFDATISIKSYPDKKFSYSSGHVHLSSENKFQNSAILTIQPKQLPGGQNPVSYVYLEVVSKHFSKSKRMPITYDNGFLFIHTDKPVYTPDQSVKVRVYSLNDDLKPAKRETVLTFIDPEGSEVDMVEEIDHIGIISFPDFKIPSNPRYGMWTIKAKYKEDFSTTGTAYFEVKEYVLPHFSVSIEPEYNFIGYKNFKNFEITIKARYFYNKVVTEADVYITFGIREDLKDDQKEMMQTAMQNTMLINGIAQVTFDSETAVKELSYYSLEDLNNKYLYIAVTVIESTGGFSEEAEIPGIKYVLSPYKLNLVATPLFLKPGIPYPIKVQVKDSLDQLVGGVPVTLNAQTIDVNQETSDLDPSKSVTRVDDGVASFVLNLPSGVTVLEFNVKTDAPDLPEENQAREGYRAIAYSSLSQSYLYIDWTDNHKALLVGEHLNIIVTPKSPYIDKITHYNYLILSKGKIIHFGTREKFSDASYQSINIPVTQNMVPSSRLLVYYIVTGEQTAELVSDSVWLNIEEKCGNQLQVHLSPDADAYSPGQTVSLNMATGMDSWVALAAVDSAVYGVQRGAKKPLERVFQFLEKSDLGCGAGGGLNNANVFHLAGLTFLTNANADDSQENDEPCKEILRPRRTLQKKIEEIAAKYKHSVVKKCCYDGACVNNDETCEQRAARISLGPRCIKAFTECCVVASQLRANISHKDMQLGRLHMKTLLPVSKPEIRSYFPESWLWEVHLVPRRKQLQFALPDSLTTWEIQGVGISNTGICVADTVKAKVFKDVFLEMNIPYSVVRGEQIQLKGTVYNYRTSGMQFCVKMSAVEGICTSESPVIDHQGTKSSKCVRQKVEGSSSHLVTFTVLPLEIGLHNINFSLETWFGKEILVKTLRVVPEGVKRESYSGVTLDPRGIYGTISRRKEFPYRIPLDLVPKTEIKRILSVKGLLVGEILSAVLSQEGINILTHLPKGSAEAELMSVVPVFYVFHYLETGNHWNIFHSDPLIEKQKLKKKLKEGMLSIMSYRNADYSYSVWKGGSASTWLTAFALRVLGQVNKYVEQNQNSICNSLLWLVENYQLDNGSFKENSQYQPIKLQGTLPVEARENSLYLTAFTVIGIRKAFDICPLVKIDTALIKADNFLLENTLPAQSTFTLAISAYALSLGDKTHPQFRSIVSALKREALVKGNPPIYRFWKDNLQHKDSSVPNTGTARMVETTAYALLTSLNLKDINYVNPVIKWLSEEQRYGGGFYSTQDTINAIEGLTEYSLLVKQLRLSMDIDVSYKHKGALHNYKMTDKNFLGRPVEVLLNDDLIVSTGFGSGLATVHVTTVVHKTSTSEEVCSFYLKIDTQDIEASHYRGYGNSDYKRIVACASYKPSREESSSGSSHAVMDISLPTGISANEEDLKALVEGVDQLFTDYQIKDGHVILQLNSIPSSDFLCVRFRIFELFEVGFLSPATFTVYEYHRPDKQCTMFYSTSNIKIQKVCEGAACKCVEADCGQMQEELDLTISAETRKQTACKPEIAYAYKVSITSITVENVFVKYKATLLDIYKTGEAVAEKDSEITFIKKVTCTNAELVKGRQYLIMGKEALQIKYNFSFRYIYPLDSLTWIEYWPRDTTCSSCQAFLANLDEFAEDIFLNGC

B1: Ravulizumab (antibody, human IgG2, kappa, V domains shown)
VH: QVQLVQSGAEVKKPGASVKVSCKASGHIFSNYWIQWVRQAPGQGLEWMGEILPGSGHTEYTENFKDRVTMTRDTSTSTVYMELSSLRSEDTAVYYCARYFFGSSPNWYFDVWGQGTLVTVSS
VL: DIQMTQSPSSLSASVGDRVTITCGASENIYGALNWYQQKPGKAPKLLIYGATNLADGVPSRFSGSGSGTDFTLTISSLQPEDFATYYCQNVLNTPLTFGQGTKVEIKR
[1]
  IC50 (read off the curve); AP hemolysis, 25% NHS: ~200 nM
[2]
  IC50 (read off the curve); CP hemolysis, 5% NHS: ~30 nM
[3]
  IC50 (read off the curve); CP hemolysis, 10% NHS: ~80 nM
[4]
  IC50 (read off the curve); CP hemolysis, 25% NHS: ~100 nM
[5]
  IC50 (read off the curve); AP hemolysis, 25% NHS, 1 mM MgCl2: ~200 nM
[6]
  IC50 (read off the curve); AP hemolysis, 25% NHS, 1.5 mM MgCl2: ~200 nM
[7]
  IC50 (read off the curve); AP hemolysis, 25% NHS, 2 mM MgCl2: ~200 nM
